Assay results: patent EP2628479A1, “Cosmetic use of climbazol” (Henkel AG&Co. KGAA, priority 2011, dated 2013)

Key:
[1] = tested on: Co-Kultur-System; experiment: Collagen neosynthesis in co-culture system (2D fibroblast culture with 3D epidermis model insert), P1 NP secreted into the medium; type: cell-based
From the text: Zum Nachweis der Kollagen-Neusynthese wurde ein Co-Kultur-System verwendet, das aus einer zweidimensionalen Fibroblasten-Kultur besteht, auf die in einem Insert ein dreidimensionales Epidermismodell aufgesetzt wurde. Über das Nährmedium kann ein Stoffaustausch zwischen den Fibroblasten und den Keratinocyten des Epidermismodells erfolgen.
Als Kontrollen für die Syntheseinduktion wurden Retinsäure und Retinol eingesetzt.

[2] = tested on: CYP26A1; experiment: Identification as RAMBA: qPCR of CYP26A1 expression change in keratinocytes incubated with substance plus retinoic acid; conditions: in combination with Retinsäure; statement in words on Tabelle 1

Structure (SMILES): CC(=O)N1CCN(c2ccc(OCC3COC(Cn4ccnc4)(c4ccc(Cl)cc4Cl)O3)cc2)CC1 (stereo not drawn) [Ketokonazol]
- P1 NP ([1]; Ketokonazol 50µM, unbehandelt = 107): 196 µg/mL
- Kollagensynthese ([1]; statement in words on Tabelle 2): Induktion der Kollagensynthese
- Induktion von CYP26A1 [2]: deutlich vermindert
